Results published in article PMC7889650.

Protein sequences, listed by entry. Tags and fused reporters are not part of them. Residues count along the entry.
UniProt Q9BZ95, 680-1437 K1206A/K1234A: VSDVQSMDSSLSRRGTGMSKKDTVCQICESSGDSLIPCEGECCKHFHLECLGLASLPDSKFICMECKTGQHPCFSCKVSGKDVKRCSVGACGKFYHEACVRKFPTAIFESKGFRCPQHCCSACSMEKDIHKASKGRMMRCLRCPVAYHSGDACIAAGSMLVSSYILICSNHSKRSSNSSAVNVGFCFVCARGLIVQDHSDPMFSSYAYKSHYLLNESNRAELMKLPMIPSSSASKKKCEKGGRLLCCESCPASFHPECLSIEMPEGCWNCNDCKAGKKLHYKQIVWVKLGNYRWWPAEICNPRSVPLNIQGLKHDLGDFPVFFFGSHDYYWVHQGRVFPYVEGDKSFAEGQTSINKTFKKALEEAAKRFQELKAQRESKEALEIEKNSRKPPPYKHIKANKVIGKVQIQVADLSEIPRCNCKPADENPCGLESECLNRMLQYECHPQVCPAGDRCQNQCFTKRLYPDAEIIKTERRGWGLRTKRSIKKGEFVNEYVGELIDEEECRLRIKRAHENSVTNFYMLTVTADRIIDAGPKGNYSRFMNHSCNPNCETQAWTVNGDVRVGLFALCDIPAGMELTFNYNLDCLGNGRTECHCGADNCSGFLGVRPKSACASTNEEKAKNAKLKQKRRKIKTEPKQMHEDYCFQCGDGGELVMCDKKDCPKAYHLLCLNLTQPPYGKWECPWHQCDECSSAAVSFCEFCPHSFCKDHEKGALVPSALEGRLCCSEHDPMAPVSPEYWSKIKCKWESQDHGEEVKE
UniProt Q9BZ95, 680-1437 R1287A/K1289A: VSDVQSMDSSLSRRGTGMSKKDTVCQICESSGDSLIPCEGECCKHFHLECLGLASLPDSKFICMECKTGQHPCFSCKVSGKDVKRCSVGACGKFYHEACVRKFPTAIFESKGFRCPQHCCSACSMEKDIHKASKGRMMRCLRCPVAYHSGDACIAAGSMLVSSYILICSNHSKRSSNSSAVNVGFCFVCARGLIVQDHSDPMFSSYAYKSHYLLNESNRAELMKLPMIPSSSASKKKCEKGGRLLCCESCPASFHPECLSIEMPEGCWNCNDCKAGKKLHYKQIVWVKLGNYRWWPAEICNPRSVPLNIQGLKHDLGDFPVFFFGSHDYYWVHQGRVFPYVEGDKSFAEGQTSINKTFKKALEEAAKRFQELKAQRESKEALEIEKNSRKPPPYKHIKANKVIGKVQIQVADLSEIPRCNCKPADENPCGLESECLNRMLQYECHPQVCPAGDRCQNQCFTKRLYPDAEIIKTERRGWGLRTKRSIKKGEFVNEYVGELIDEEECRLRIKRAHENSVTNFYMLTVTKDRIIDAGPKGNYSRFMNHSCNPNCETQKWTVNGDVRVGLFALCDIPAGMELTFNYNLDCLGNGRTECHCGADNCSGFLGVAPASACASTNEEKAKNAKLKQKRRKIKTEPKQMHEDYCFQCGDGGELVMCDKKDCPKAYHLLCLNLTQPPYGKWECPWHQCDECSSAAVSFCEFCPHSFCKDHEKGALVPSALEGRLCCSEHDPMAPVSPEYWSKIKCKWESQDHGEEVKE

Experiments:
[1] = target: 6xHis-MBP-tagged NSD3 (680–1437) K1206A/K1234A (human) (UniProt Q9BZ95); assay: MST
[2] = target: 6xHis-MBP-tagged NSD3 (680–1437) R1287A/K1289A (human) (UniProt Q9BZ95); assay: MST

percent of binding affinity lost relative to wild type [1]: 78% | percent of binding affinity lost relative to wild type [2]: 68%
Substance: 187-bp nucleosome core particle (complex)
